Experimental findings from patent publication US12377086B2, “Therapeutic methods, combinations and kits” (priority 2021, dated 2025) are described below.

Amino acid sequences for entries named in this document (tags omitted).
UniProt C7C422, whole entry, looked up, species assumed: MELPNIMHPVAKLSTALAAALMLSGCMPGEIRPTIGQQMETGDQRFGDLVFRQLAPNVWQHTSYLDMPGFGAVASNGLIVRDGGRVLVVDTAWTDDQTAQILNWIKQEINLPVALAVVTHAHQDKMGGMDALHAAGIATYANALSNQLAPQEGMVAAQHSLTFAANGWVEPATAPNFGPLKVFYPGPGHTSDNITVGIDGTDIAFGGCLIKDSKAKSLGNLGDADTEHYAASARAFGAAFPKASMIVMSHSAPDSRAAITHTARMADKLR

For orientation: EC50 means the concentration giving half of the maximal effect. Read a high EC50 as a less potent agent. As a reminder, the IC50 is the concentration that gives 50% inhibition. A high value points to lower potency. One may read the Ki as a dissociation constant, usually derived from enzyme kinetics or from competition with a known ligand. A lower Ki goes with a stronger hold on the target. By inhibition is commonly meant how much of the control response was suppressed.

The test system of data set [1] is VIM-2 expressing E. coli. It is filed as cell-based, Escherichia coli. The protocol:
(§1) Both Escherichia coli BL21 (DE3) cells (Invitrogen) and its transformed cell lines with plasmid pet24a-VIM-2 have been reported previously (M. F. Mojica, et al., Exploring the Role of Residue 228 in Substrate and Inhibitor Recognition by VIM Metallo-beta-lactamases, Biochemistry-Us, 54 (2015) 3183-3196). The optical density of the cell cultured was monitored at 600 nm (OD600 nm). The cells were cultured on 0.8 g/100 ml nutrient agar plate at pH 7.0 and 37° C. The bacterial growth medium was diluted in nutrient broth (NB) to a concentration absorbance of 1.5 and incubated overnight in 10 ml capped culture tubes with shaking. An overnight culture of the bacterial strain was sub-cultured to 0.06 OD600 nm into the NB medium and was then seeded at max 200 μl into the wells of a 96 well microtiter plate. Samples were then incubated at 37° C. and shaken at 200 rpm for 18 h. The absorbance was measured on an ELIZA plate reader and analyzed with the Gen5™ software suite (version 1.08).
(§2) • The data are reported as relative percentage growth compared to untreated cells.

The test system of the next data set is E. coli. It is filed as cell-based, Escherichia coli. The protocol:
as §1, §2

Data set [2] deals with VIM-2 expressing E. coli. Nature of the data set: microbe, parasite or virus in culture. The following applies: Escherichia coli. It is filed as cell-based.
The target in data set [3] is T1, NDM-1 (Klebsiella pneumoniae, UniProt C7C422). In words: Dose response enzymatic inhibition assay and inhibition constant, NDM-1. It is filed as biochemical.
The target in data set [4] is T1, NDM-1. In words: biochemical.
Another data set is described as follows: in vitro. The following applies: human.
The next data set deals with VIM-2 (Pseudomonas aeruginosa, UniProt Q5U7L7). In words: biochemical.

A value given as a limit tells only on which side of the number the result lay.

On to `Oc1cccc2cccnc12` [Compound 31, 8-Hydroxyquinoline], for which the “growth inhibition on its own” value with VIM-2 expressing E. coli [1] (VIM-2 expressing E. coli, compound alone) is “over 42%”. Moreover, in the data set with VIM-2 expressing E. coli [1] (single dose, with 50 μM amoxicillin), the “VIM-2 expressing E. coli Amox (+) relative percentage growth compared to untreated cells” value is 5.0%. Further, in the data set on VIM-2 expressing E. coli [1] (single dose, without amoxicillin), the “VIM-2 expressing E. coli Amox (−) relative percentage growth compared to untreated cells” value is recorded as 51%. In the data set on E. coli, the “E. coli Amox (+) relative percentage growth compared to untreated cells” value came out at 4.7%, the “E. coli Amox (−) relative percentage growth compared to untreated cells” value is on record as 58% and the “growth inhibition on its own” value is reported as “over 42%”. Further, the response in the data set with VIM-2 expressing E. coli [2] was half-maximal at 0.08 µM (EC50). For the same molecule, the IC50 against NDM-1 [3] (5 nM MBL, 10 μM nitrocefin) turned out to be 2.3 µM. Moreover, the “NDM-1 LE (ligand efficiency)” value at NDM-1 [3] (LE = −1.38 log (Ki)/N, N = number of heavy atoms) was determined as 0.81. The molecule also came in with a Ki at NDM-1 [3] (nitrocefin substrate, competitive-inhibition fit) of 0.36 µM. Moreover, the NDM-1 percentage inhibition at NDM-1 [4] (50 μM compound, 5 nM MBL, 10 μM nitrocefin, 30 mins) was found to be 96%. Besides, the inhibition at 50 µM at NDM-1 [4] (read-out: NDM-1 percentage inhibition, 50 μM compound, 5 nM MBL, 10 μM nitrocefin, 30 mins) was greater than 96%. The same molecule showed a CC50 at 72 h in the data set “in vitro” of 3.5 µM.
Molecule `O=C(O)c1ccnc2c(O)cccc12` [Compound 44] returned an IC50 against VIM-2 (5 nM MBL, 10 μM nitrocefin) of 2.2 µM.
On VIM-2, `O=C(O)c1ccc2cccnc2c1O` [Compound 45, 8-hydroxyquinoline-7-carboxylic acid] came in with a Ki of 0.28 µM.
